The target in this assay is PAR4 (Homo sapiens (Human), UniProt Q96RI0). Kind of assay: FLIPR assay in PAR4-expressing HEK293 cells (PAR4 antagonist activity, calcium mobilization). Format: cell-based. The note with it: read-out: PAR4 FLIPR Assay (IC50), FLIPR assay as described in Example A. In general terms: A change in cytosolic calcium serves as a functional read-out for many receptors and channels.

Sequences of proteins named here, by UniProt entry; tags and fusion partners are left off. Residues count along the entry.
UniProt Q96RI0, 18-385 limits assumed: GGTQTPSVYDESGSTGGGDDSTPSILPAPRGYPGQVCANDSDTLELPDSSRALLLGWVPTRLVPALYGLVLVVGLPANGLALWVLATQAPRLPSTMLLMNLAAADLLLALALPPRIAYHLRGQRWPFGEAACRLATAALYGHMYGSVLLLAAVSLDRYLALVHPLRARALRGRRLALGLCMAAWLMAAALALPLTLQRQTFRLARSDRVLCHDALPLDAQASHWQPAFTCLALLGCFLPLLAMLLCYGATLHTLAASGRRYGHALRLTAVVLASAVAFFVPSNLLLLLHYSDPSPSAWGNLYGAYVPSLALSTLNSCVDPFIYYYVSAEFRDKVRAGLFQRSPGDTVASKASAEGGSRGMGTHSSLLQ

The IC50 is the concentration at which inhibition is half-maximal.

As for `CCc1nn2cc(-c3cc4c(OC)cccc4o3)nc2s1`, the IC50 was determined as 91.1 nM.

These data come from patent US9862730B2, “Imidazothiadiazole derivatives as protease activated receptor 4 (PAR4) inhibitors for treating platelet aggregation” (BRISTOL-MYERS SQUIBB COMPANY, priority 2012, dated 2018).
